The values that follow come from US11905286B2, “Diazabicyclooctanones as inhibitors of serine beta-lactamases” (priority 2018, dated 2024).

The test system of this experiment is NTBC189 (K. pneumoniae strain expressing TEM-OSBL(b), CTX-M-14, OXA-48(c)). Kind of experiment: Meropenem potentiation, broth micro-dilution MIC, strain NTBC189. The settings on record: NTBC189, MIC of meropenem with 4 μg/mL of the labelled inhibitor, value.

With `NC(=O)[C@@H]1CC[C@@H]2CN1C(=O)N2OS(=O)(=O)O` [Avibactam, avibactam, reference compound], the “MIC mero + 4 μg/mL inhibitor” value was found to be 0.25 µg/mL.
